Test results published in PubChem BioAssay AID1259333 (Broad Institute, 2017).
Some of these compounds have results that are not shown, active ones among them.

Tested on: cytotoxicity, CellTiter-Glo ATP luminescence
Assay: cell cytotoxicity, dose response, cytotoxicity control, CellTiter-Glo (AID 1259333)

Structure (SMILES): C=C(C)C#CC(O)(C(=O)OC1CCN(C)CC1)c1ccccc1 (stereo unspecified)
- AC50: 8.7 µM
